# Assay results taken from patent US6645965B1, “Nitrate salts of antihypertensive medicines” (priority 1998, dated 2003).
# System: gastric tissue
# Assay: Gastric toxicity in rats given ethanol 50% by os (gastric lesions)
# Type: in vivo
# Conditions: Sprague-Dawley male rats (n=10), 10 mg/Kg i.p. as free base, ethanol 50% by os 30 minutes later; Controls 50
# Protocol: 5 groups of Sprague-Dawley male rats (n=10), were fasted for 24 hours. 4 groups were then respectively treated i.p. with Sildenafil, Zaprinast, and the relevant nitrate salts of said drugs. One group was not treated and was tha control group. 30 minutes later 1 ml of ethanol 50% in water was given by os to the animals.
# One hour later the animals were sacrificed. The stomach was removed and the gastric tissue was macroscopically examined.
# The results are reported in Table X. In the Table the gastric toxicity given as % incidence is the number of rats in a group showing gastric lesions.
substance,measurement,value
Sildenafil Nitrate Salt [Sildenafil.HNO3],Gastric toxicity (% incidence),20 % incidence
